Reference: ChEMBL document CHEMBL4304816, “A Novel Biphenyl-based Chemotype of Retinoid X Receptor Ligands Enables Subtype and Heterodimer Preferences” (ACS Med Chem Lett, 2019)

Columns and labels:
Format in all cases: cell-based
[1] = molecular target: T1, Retinoic acid receptor RXR-beta (Homo sapiens) (UniProt P28702); assay: Agonist activity at Gal4-LBD fused RXRbeta (unknown origin) expressed in HEK293T cells assessed as fold activation at 1 uM after 14 to 16 hrs by dual-Glo luciferase assay relative to untreated control
T1 sequence (whole entry): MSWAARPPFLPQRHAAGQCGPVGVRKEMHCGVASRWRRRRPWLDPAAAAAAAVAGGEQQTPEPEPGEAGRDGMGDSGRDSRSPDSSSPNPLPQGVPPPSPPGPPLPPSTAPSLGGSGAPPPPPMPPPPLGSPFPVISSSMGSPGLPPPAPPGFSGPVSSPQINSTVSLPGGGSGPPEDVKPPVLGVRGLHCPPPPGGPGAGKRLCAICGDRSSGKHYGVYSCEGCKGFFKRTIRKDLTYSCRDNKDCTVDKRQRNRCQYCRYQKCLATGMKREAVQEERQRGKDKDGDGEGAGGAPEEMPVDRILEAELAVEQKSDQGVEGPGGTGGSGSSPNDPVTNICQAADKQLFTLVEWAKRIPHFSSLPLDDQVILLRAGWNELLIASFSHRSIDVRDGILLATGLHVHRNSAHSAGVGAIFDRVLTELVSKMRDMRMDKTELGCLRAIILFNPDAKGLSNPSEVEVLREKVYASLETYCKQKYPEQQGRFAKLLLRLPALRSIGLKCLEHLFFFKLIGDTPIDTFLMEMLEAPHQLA

[2] = molecular target: T2, Retinoic acid receptor RXR-alpha (Homo sapiens) (UniProt P19793); assay: Agonist activity at Gal4-LBD fused RXRalpha (unknown origin) expressed in HEK293T cells assessed as fold activation at 1 uM after 14 to 16 hrs by dual-Glo luciferase assay relative to untreated control
T2 sequence (whole entry): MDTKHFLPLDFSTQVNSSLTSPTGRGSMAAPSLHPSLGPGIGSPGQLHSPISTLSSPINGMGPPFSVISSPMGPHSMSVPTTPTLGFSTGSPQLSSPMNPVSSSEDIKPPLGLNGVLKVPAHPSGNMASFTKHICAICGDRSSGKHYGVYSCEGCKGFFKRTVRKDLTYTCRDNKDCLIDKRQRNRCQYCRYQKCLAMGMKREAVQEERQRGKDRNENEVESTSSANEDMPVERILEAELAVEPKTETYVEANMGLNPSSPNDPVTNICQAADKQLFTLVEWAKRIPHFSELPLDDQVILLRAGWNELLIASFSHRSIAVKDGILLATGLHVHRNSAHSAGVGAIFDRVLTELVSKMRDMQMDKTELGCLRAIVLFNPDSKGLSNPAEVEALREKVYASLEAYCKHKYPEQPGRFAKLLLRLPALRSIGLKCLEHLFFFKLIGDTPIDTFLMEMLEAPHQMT

[3] = molecular target: T3, Retinoic acid receptor RXR-gamma (Homo sapiens) (UniProt P48443); assay: Agonist activity at Gal4-LBD fused RXRgamma (unknown origin) expressed in HEK293T cells assessed as fold activation at 1 uM after 14 to 16 hrs by dual-Glo luciferase assay relative to untreated control
T3 sequence (whole entry): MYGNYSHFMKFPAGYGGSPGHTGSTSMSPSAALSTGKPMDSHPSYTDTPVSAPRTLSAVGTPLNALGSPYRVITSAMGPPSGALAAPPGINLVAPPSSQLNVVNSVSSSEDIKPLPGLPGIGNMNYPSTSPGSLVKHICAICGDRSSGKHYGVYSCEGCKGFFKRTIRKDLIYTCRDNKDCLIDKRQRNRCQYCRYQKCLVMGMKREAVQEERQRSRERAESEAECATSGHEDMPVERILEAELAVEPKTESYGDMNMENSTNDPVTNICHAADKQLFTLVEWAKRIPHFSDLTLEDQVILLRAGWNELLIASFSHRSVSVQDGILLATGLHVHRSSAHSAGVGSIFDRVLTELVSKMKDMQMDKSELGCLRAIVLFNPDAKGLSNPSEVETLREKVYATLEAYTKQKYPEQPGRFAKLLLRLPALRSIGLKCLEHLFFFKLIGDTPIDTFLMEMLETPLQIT

Homo sapiens = species: Homo sapiens; assay: Agonist activity at full-length human PPARgamma/RXR expressed in HEK293T cells at 25 uM after 14 to 16 hrs in presence of 1 uM rosiglitazone by dual-glo luciferase reporter gene assay relative to rosiglitazone
[4] = molecular target: T1, Retinoic acid receptor RXR-beta (Homo sapiens); assay: Agonist activity at Gal4-LBD fused RXRbeta (unknown origin) expressed in HEK293T cells assessed as fold activation at 5 uM after 14 to 16 hrs by dual-Glo luciferase assay relative to untreated control
[5] = molecular target: T3, Retinoic acid receptor RXR-gamma (Homo sapiens); assay: Agonist activity at Gal4-LBD fused RXRgamma (unknown origin) expressed in HEK293T cells assessed as fold activation at 5 uM after 14 to 16 hrs by dual-Glo luciferase assay relative to untreated control
[6] = molecular target: T2, Retinoic acid receptor RXR-alpha (Homo sapiens); assay: Agonist activity at Gal4-LBD fused RXRalpha (unknown origin) expressed in HEK293T cells assessed as fold activation at 5 uM after 14 to 16 hrs by dual-Glo luciferase assay relative to untreated control

SMILES: Cc1cc(-c2cc(C(F)(F)F)cc(C(F)(F)F)c2)ccc1CC(=O)O
- fold change (FC) [1]: 59
- fold change (FC) [2]: 24
- fold change (FC) [3]: 8

SMILES: O=C(O)c1cccc(-c2cc(Cl)cc(Cl)c2)c1
- Activity (Homo sapiens): 42%

SMILES: CC(C)(C)c1cc(-c2ccc(CC(=O)O)cc2)cc(C(C)(C)C)c1
- fold change (FC) [4]: 94
- fold change (FC) [5]: 17
- fold change (FC) [6]: 39
